Laboratory results reported in patent US20100273722A1 (YALE UNIVERSITY, published 2010).
No end group written: not given here.

Legend:
[1] = target: T1, chicken c-Src (residues 81-140) SH3 domain-GST fusion protein (chicken, UniProt P00523 81-140); test: fluorescence polarization, 50 nM labeled peptide, SH3-GST titrated
[2] = target: T1, chicken c-Src (residues 81-140) SH3 …; test: fluorescence polarization, 50 nM labeled peptide, SH3-GST titrated; data above 50 micromolar target excluded from the fit

Row | Binder | Kd [1] [nM] | Kd [2] [nM]
1 | APPLPPRNRGDDAPVEDLIRFYDNLQQYLNVVTRHRYC (designed binder, ends and bridges not checked; also: fluorescently labeled, site and dye not given here, also called PP2 (fluorescently labeled)) [PP2^Flu] | 1300 | –
2 | APPLPPRNPGDDAPVEDLIRFYDNLQQYLNVVTRHRYC (designed binder, ends and bridges not checked; also: fluorescently labeled, site and dye not given here, also called PP1 (fluorescently labeled)) [PP1^Flu] | 3680 | –
3 | APPLPPRNRPRDAPVEDLIRFYDNLQQYLNVVTRHRYC (designed binder, ends and bridges not checked; also: fluorescently labeled, site and dye not given here, also called PP3 (fluorescently labeled)) [PP3^Flu] | – | 350
